# From patent US20250127740A1, “COMPOSITION CONTAINING 3-HYDROXYANTHRANILIC ACID AND COMPOUNDS THAT ALTER IRON HOMEOSTASIS AND METHOD OF ITS USE” (priority 2021, published 2025)
# Tested on: C. elegans
# Format: in vivo
# Details: added to culture medium of haao-1 knockout worms (elevated endogenous 3HAA)
# Protocol: To determine if 3HAA in combination with DFO or FAC have any toxic effects to an animal, DFO was added to culture medium of haao-1 knockout worms, which have elevated endogenous 3HAA. We chose this approach because adding 3HAA and DFO or FAC to the growth media would impact bacterial growth, which can itself impact worm survival. Using the haao-1 knockout strain exposes the animals, but not their bacterial food source, to 3HAA.
substance,measurement,value
ferric ammonium citrate [FAC],toxicity to C. elegans relative to wild type animals,neither the combination of DFO and elevated 3HAA (haao-1) nor the combination of FAC with elevated 3HAA (haao-1) were toxic
